Patent US7612201B2, “Pyrazole compounds” (Vernalis (Cambridge) Limited, priority 2002, dated 2009)

Sequences of proteins named here, by UniProt entry; tags and fusion partners are left off.
UniProt P02829, whole entry: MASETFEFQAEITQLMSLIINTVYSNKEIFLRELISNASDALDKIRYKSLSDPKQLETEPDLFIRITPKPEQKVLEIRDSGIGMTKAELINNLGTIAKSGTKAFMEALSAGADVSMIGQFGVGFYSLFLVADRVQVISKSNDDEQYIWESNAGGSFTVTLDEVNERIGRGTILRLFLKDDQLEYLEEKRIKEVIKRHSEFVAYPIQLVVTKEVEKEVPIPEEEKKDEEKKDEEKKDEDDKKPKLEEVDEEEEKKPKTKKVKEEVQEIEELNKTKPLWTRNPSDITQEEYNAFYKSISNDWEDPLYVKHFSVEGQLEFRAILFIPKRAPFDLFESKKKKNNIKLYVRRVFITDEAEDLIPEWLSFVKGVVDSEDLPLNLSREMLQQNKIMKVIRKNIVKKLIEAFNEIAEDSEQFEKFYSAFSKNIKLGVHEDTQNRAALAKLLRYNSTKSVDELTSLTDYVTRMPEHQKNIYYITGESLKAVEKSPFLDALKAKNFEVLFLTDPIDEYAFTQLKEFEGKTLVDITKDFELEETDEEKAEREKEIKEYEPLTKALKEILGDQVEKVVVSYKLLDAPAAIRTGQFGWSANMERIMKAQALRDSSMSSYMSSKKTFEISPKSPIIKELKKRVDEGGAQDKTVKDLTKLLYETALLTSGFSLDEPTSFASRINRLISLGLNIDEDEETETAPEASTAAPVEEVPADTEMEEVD

Target: T1, yeast HSP90 (Saccharomyces cerevisiae, UniProt P02829)
T1 construct: made in house; host or cells: E. coli
Assay: Malachite green ATPase assay
Format: biochemical
Settings: activity range
Text: The intrinsic ATPase activity of HSP90 may be measured using yeast HSP90 as a model system. The assay, based on the use of malachite green for the measurement of inorganic phosphate, was used to test the HSP90 inhibitory activity of the compounds of the Examples herein.
Malachite Green ATPase Assay
Chemicals are of the highest purity commercially available and all aqueous solutions are made up in AR water. Because of the need to minimise contamination with inorganic phosphate, precautions should be taken with solutions and apparatus used in the assays. Glassware and pH meters are rinsed with double distilled or deionised water before use and, wherever possible, plastic ware should be used. Gloves are worn for all procedures. • (1) Greiner 384-well (Greiner 781101) or Costar 384-well flat-bottomed polystyrene multiwell plates (VWR). • (2) Assay buffer of (a) 100 mM Tris-HCl, pH 7.4, (b) 150 mM KCl, (c) 6 mM MgCl2. Stored at room temperature. • (3) 0.0812% (w/v) malachite green (M 9636, Sigma Aldrich Ltd., Poole, UK). […]
Method • 1. […] Measure Absorbance at 620 nm using a suitable plate reader (e.g. Victor, Perkin Elmer Life Sciences, Milton Keynes, UK). […]

Row | IC50 [µM] | SMILES
1 | < 50 | CS(=O)(=O)c1ccc(CN2CCN(c3c[nH]nc3-c3cc(Cl)c(O)cc3O)CC2)cc1 [Example 12]
2 | < 50 | Oc1cc(O)c(-c2n[nH]cc2N2CCN(Cc3ccccc3)CC2)cc1Cl [Example 24]
